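Five compound concentrations were applied to cells in 96-well plates for 48 hours; endpoints were derived by simple linear interpolation of the resulting dose-response curve. GI50 = concentration required for 50% inhibition of growth. TGI marks complete inhibition of growth.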
Experiments:
Assay in all cases: growth of human tumour cells (NCI), 48 h; in the data active means GI50 below about 0.43 µM; inactive means the rest
M19-MEL melanoma = tested on: M19-MEL melanoma
DMS 114 small cell lung = tested on: DMS 114 small cell lung
SNB-78 CNS = tested on: SNB-78 CNS
DLD-1 colon = tested on: DLD-1 colon
LXFL 529 NSCLC = tested on: LXFL 529 NSCLC

Nc1ccccc1Nc1ccccc1C(=O)[O-].Nc1ccccc1Nc1ccccc1C(=O)[O-].[Zn+2]
57.9 µM: TGI (M19-MEL melanoma)
inactive: GI50 (M19-MEL melanoma) 23.9 µM | GI50 (DMS 114 small cell lung) 70.7 µM | GI50 (SNB-78 CNS) 50.3 µM | GI50 (DLD-1 colon) > 100 µM | GI50 (LXFL 529 NSCLC) 33.9 µM
> 100 µM: TGI (DMS 114 small cell lung) | TGI (SNB-78 CNS) | TGI (DLD-1 colon) | TGI (LXFL 529 NSCLC)
